The structures appear in SMILES notation.

In the series the test system is MDCK-MDR1 cells. Nature of the series: Comparison of Papp,B-A with and without inhibitor in MDCK-MDR1 cells (own and literature data). Particulars: calculated from literature Papp,B⟶A and Papp with inhibitor; pH 7.4 iso-method.

As to `CC(C)CN(C[C@@H](O)[C@H](Cc1ccccc1)NC(=O)O[C@H]1CCOC1)S(=O)(=O)c1ccc(N)cc1` [Amprenavir], the Factor difference was 2.

Values taken from article PMC11637191, “The pH-dependence of efflux ratios determined with bidirectional transport assays across cellular monolayers” (International Journal of Pharmaceutics: X, 2024).
